Test results from paper PMC3736441 (Marine Drugs, 2013).

Protein sequences, listed by entry. Tags and fused reporters are not part of them. Residues count along the entry.
UniProt P22303, 32-614: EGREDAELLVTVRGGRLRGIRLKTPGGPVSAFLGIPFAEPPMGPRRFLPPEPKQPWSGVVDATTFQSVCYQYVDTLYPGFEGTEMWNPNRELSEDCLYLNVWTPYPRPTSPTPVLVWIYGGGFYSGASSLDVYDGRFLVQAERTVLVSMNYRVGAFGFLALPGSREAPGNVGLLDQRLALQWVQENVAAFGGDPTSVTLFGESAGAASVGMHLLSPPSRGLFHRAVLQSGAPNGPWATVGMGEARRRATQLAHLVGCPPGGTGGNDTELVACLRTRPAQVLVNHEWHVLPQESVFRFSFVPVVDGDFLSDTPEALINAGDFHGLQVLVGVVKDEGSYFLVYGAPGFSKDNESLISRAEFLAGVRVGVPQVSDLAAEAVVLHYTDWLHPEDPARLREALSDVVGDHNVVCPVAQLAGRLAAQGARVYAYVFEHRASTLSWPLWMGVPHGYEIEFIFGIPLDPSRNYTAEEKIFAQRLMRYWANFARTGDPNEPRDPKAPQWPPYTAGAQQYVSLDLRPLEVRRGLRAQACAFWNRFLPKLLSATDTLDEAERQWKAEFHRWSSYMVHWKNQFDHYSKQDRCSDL

Columns and labels:
[1] = test system: cervix carcinoma cells (Hela); conditions: MTT
Description: (§1) IC50 of these compounds were determined by the MTT assay (see Table 2).
(§2) The cytotoxic activities were determined using MCF-7, A549, Hela, KB human tumor cells by the MTT colorimetric method. […] Subsequently 20 μL of MTT solution (5 mg/mL) were added to each well and mixed, the cells were then incubated for an additional 4 h. Culture supernatant were removed, 150 μL of DMSO were added to each well to fully dissolve the MTT—formazan crystals. Cell growth inhibition was determined by measuring the absorbance (Abs) at λ = 570 nm using a microplate reader and calculated according to the following equation: Growth inhibition = (1 − OD of treated cells/OD of control cells) × 100% (1)
(§3) The half maximal inhibitory concentrations (IC50) were obtained from linear regression analysis of the concentration-response curves plotted for each tested compound (Bliss’s software). Results were expressed as the mean value of triplicate data points.

lung cancer cells (A549) = test system: lung cancer cells (A549)
Description: as §1, §2, §3

[2] = test system: human breast cancer cells (MCF-7); conditions: MCF-7 cells, MTT
Description: as §1, §2, §3

[3] = test system: human nasopharyngeal carcinoma cells (KB)
Description: as §1, §2, §3

[4] = target: α-acetylcholinesterase (AChE) (Homo sapiens, UniProt P22303); type: biochemical; conditions: read-out: Inhibition of AChE IC50; phosphate buffer pH 7.0, 37 °C, triplicate
Description: α-Acetylcholinesterase inhibitory activity was assayed using 50 mM phosphate buffer (pH 7.0). […] 10 μL of sample solution and 10 μL of α-acetylcholinesterase solution (2 units mL^−1, in the phosphate buffer at pH 7.0) were added to 960 μL of phosphate buffer and incubated at 37 °C for 30 min, and then 20 μL of substrate were added to initiate the enzyme reaction. The enzyme reaction was carried out at 37 °C for 30 min. Product was monitored spectrophotometrically by measuring the absorbance (λ = 400 nm). Huperzine A was used as reference standard inhibitor for comparison. Dose-response curves were obtained by performing assays in the presence of increasing concentrations of inhibitors. IC50 value was determined by interpolation of the dose-response curves. For all tests, the inhibition assays were performed in triplicate.

Q: With beauvericin [Compound 10] as the substance, how does the “cytotoxic / inhibitory activity against Hela (in words)” value [1] read?
A: strong or moderate cytotoxic activies

Q: And the “cytotoxic / inhibitory activity against A549 (in words)” value (lung cancer cells (A549); MTT)?
A: strong or moderate cytotoxic activies

Q: What about the IC50 (lung cancer cells (A549); read-out: Cytotoxicity IC50 A549, MTT) of the same substance?
A: 820 nM

Q: What about the “cytotoxic / inhibitory activity against MCF-7 (in words)” value [2] of the same substance?
A: strong or moderate cytotoxic activies

Q: And the “cytotoxic / inhibitory activity against KB (in words)” value ([3]; MTT)?
A: strong or moderate cytotoxic activies

Q: And the IC50 ([3]; read-out: Cytotoxicity IC50 KB, MTT)?
A: 1100 nM

Q: What about the IC50 [4] of the same substance?
A: 3090 nM
